Reference: PubChem BioAssay AID697 (Columbia University Molecular Screening Center, 2007)
This is a selection; strong and weak results do not stand in their true shares. The source made the active and inactive calls.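 The calls were made as follows: active = activation at 2 µM above a set limit, the mean plus 5 SD (cut at about 37% in these data); inactive = the rest.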

The chains behind the UniProt entries cited, without tags or fusion partners.
UniProt Q9Y2R2, whole entry: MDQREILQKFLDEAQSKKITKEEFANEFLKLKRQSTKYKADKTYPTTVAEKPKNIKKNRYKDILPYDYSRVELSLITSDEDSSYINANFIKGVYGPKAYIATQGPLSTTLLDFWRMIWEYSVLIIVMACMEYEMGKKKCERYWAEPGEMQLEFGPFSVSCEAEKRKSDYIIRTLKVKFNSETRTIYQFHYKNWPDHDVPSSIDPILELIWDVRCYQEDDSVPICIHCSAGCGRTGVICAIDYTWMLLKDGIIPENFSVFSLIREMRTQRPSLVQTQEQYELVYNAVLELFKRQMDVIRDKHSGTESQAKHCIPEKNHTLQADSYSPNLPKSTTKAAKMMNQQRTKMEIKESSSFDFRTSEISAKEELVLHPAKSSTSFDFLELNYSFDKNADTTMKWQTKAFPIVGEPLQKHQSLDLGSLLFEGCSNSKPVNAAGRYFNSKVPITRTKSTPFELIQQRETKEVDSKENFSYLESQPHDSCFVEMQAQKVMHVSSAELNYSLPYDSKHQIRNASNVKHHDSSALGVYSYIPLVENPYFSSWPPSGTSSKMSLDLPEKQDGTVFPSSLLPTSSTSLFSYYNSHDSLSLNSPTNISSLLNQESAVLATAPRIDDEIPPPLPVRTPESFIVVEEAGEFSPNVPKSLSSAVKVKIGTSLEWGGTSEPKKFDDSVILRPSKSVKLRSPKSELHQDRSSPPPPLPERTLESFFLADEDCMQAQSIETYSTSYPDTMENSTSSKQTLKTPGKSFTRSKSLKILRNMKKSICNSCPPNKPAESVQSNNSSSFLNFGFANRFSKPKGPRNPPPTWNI

These molecules were tested against Tyrosine-protein phosphatase non-receptor type 22 (Homo sapiens) (UniProt Q9Y2R2) (assay: LYP phosphatase activators, primary screen, biochemical, DiFMUP fluorescence, 2 µM (AID 697)). Settings: recombinant LYP, at 2 µM, stronger effect = higher value, 0 = plate median, 100 = signal doubled.

| SMILES | activation |
| --- | --- |
| CCC(CO)(C(=O)OC1CN2CCC1CC2)c1ccccc1 (stereo not given) | inactive: -1.8% |
| CCOc1ncccc1C(=O)NCC1(N2CCOCC2)CCCCC1 | inactive: -0.9% |
| N/C(=N\O)c1c(N)no[n+]1[O-] | inactive: 4.2% |
| c1ccc(CN2CCC(Nc3ccccc3)CC2)cc1 | inactive: -12.2% |
| O=C(NCC1(N2CCOCC2)CCCCC1)c1cc(=O)[nH]c2ccccc12 | inactive: -3.3% |
| N#CC1(Nc2ccccc2)CCN(CCc2ccccc2)CC1 | inactive: -1% |
| CN1CCC(Nc2cccc(F)c2)CC1 | inactive: 2% |
| O=C(OC1CN2CCC1CC2)C1c2ccccc2Oc2ccccc21 (stereo not given) | inactive: 3.6% |
| O=C(NCC1(N2CCOCC2)CCCCC1)c1cc2ccccc2o1 | inactive: -7.7% |
| COc1ccc(NC2CCN(CCc3ccccc3)CC2)c(OC)c1 | inactive: -6% |
